Measurements taken from article PMC3336786 (The FASEB Journal, 2012).
Residue numbers refer to the chain shown, from its start.

Amino acid sequences for entries named in this document (tags omitted). A change or cut given only in a name is not applied to a line headed by its entry. Residues count along the entry.
UniProt P18507, 40-475: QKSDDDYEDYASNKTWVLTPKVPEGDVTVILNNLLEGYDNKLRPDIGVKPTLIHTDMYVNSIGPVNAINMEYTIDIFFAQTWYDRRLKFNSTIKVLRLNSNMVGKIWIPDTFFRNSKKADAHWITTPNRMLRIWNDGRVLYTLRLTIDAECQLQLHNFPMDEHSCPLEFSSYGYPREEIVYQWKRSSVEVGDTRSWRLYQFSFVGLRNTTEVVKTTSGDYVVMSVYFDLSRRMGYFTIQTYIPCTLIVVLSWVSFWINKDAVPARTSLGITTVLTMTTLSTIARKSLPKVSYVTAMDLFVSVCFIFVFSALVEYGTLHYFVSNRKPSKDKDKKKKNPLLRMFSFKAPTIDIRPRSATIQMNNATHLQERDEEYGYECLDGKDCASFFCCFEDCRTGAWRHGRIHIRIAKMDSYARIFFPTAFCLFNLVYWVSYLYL

Experiments:
Format in all cases: cell-based
[1] = target: T1, human α1β2 GABAA receptors (Homo sapiens, UniProt P14867+P47870); assay: Two-electrode voltage clamp of α1β2 GABAA receptors in Xenopus oocytes; details: inhibition of GABA EC50 response
T1 sequence (P14867 28-456): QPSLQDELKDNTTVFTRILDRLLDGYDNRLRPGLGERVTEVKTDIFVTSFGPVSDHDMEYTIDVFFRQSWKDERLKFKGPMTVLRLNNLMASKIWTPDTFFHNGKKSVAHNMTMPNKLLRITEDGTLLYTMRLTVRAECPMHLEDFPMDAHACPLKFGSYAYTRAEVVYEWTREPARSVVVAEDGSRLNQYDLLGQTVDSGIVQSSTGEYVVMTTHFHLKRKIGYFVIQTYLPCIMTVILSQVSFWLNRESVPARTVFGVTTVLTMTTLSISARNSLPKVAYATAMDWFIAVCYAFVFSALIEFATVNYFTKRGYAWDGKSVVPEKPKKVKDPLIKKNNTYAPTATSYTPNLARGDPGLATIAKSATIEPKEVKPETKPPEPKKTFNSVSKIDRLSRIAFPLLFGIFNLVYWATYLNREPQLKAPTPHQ
T1 sequence (P47870 26-512): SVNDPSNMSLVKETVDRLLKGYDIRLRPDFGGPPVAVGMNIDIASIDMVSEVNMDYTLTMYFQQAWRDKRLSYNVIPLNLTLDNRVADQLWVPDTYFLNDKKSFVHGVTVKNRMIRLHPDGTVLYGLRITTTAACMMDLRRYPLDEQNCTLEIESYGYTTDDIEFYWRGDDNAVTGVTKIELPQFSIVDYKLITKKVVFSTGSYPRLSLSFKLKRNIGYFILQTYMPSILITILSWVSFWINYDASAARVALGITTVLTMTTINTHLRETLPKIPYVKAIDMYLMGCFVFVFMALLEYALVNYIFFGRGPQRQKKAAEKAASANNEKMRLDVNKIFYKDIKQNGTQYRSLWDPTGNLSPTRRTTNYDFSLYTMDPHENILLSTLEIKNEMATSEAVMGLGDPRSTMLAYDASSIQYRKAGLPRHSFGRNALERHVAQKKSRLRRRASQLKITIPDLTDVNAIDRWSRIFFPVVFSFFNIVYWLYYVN

[2] = target: T2, RDLA2'V (Drosophila melanogaster, UniProt P25123, A301V); details: inhibition of GABA EC50 response
T2 sequence (P25123 45-606 A301V): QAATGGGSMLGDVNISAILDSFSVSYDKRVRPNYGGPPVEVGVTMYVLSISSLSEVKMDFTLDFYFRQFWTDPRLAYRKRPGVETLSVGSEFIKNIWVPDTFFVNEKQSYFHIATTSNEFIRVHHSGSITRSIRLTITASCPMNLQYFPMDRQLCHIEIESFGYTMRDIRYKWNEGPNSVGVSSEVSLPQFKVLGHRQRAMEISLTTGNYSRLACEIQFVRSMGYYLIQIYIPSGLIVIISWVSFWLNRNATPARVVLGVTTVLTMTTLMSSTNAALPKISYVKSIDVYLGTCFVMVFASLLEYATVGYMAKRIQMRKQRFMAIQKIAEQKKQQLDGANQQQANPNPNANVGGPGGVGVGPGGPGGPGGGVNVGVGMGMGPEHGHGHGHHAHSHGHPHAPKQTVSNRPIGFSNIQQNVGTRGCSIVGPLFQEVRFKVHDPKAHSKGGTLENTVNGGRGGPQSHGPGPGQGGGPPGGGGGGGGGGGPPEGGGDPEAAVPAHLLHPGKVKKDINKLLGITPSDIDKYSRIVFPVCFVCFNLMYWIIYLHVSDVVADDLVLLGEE

[3] = target: T3, RDL (Drosophila melanogaster, UniProt P25123)
T3 sequence (P25123 45-606): T2 sequence (P25123 45-606 A301V) with V257A

[4] = target: α1V2'Aβ2γ2 (Homo sapiens, UniProt P14867+P18507+P47870, V284A); details: inhibition of GABA EC50 response
[5] = target: T4, RDLT6'V (Drosophila melanogaster, UniProt P25123, T305V); assay: Two-electrode voltage clamp of RDLT6'V mutant receptors in Xenopus oocytes; details: inhibition of GABA-activated responses
T4 sequence (P25123 45-606 T305V): T2 sequence (P25123 45-606 A301V) with V257A, T261V

[6] = target: T5, α1V2'Aβ2 (Homo sapiens, UniProt P14867+P47870, V284A); details: inhibition of GABA EC50 response
T5 sequence (P14867 28-456 V284A): T1 sequence (P14867 28-456) with V257A
T5 sequence (P47870 26-512): T1 sequence (P47870 26-512)

[7] = target: α1β2γ2 GABAA receptors (Homo sapiens, UniProt P14867+P18507+P47870); assay: Two-electrode voltage clamp of α1β2γ2 GABAA receptors in Xenopus oocytes; details: inhibition of GABA EC50 response

## ginkgolide B [GB]
[1]
  IC50: 15.1 µM
  pIC50: 4.82 ± 0.04 M
[2]
  IC50: 310 µM
  pIC50: 3.51 ± 0.07 M
[3]
  IC50: 0.018 µM
  pIC50: 7.74 ± 0.03 M
[4]
  IC50: 14.8 µM
  pIC50: 4.83 ± 0.05 M
[5]
  IC50: 257 µM
[5]; NI = 50% inhibition not reached at 1 mM
  pIC50: 3.59 ± 0.36
[6]
  IC50: 4.68 µM
  pIC50: 5.33 ± 0.04 M
[7]
  IC50: 115 µM
  pIC50: 3.94 ± 0.05 M
